# From ChEMBL document CHEMBL1152837, “Ligand binding to nucleic acids and proteins: Does selectivity increase with strength?” (Eur J Med Chem, 2008)
# Assays:
# Type in all cases: cell membranes
# Rattus norvegicus [1] = organism: Rattus norvegicus; assay: Ratio of Ki for delta opioid receptor in rat brain membrane to Ki for mu opioid receptor in rat brain membrane
# Rattus norvegicus [2] = organism: Rattus norvegicus; assay: Ratio of Ki for kappa opioid receptor in rat brain membrane to Ki for mu opioid receptor in rat brain membrane
# Rattus norvegicus [3] = organism: Rattus norvegicus; assay: Ratio of Ki for mu opioid receptor in rat brain membrane to Ki for delta opioid receptor in rat brain membrane
structure (smiles),measurement,setting,value
Oc1ccc2c3c1O[C@H]1c4[nH]c5ccccc5c4C[C@@]4(O)[C@@H](C2)N(CC2CC2)CC[C@]314 [NALTRINDOLE],Ratio Ki,Rattus norvegicus [1],0.008
same,Ratio Ki,Rattus norvegicus [2],1.1
same,Ratio Ki,Rattus norvegicus [3],120
